## Antibody variant affinities, Ab-14 light chain, assay B

From the AlphaSeq antibody data of Li et al. 2023 (doi:10.1038/s41467-023-39022-2), copy in the FLAb collection.

Target peptide (SARS-CoV-2 spike, HR2 region): PDVDLGDISGINAS

Each scFv is VH, a (GGGGS)3 linker, VL, as in the parent Ab-14, and differs from it in the CDRs of the light chain only.
VH: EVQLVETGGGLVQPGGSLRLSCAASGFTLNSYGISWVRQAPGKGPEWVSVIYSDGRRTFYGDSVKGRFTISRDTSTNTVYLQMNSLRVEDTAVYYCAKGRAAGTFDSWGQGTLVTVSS
VL: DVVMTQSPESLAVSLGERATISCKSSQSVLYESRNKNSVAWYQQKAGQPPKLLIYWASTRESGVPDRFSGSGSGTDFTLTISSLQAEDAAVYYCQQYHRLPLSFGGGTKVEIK

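These sequences belong to a second round, designed from the earlier measurements on random variants of the parent. Their group label is 14L_En_HC (En: ensemble of fine-tuned language models; HC: hill climbing; a sequence that several methods proposed may carry one label only). AlphaSeq pools MATa yeast showing the antibodies with MATalpha yeast showing the peptide. Mating (16 h, 30 °C) was followed by selection of diploids and sequencing of their barcodes. Read counts were normalised to the haploid input and turned into Kd by a linear fit to BCL2-family pairs of known affinity, for each replicate. Each pool was mated in six replicate cultures.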

Variants are written as CDR1, CDR2 and CDR3 of the light chain (limits as in the source). Parent: KSSQSVLYESRNKNSVA, WASTRES, QQYHRLPLS. The read-out is the apparent dissociation constant on a log10 scale (nM): the lower, the stronger. A pair that was not seen in that replicate is written "ND"; this usually means weak binding, but a binder can also be missed.

CDR-L1 | CDR-L2 | CDR-L3 | log10 Kd, replicates | control signals
KLGQMTAIESRNLNSVA | QMDTRES | QQYHHLPLS | 0.26 0.70 0.70 0.12 0.33 1.08 | 0 of 18
KLRQVTGYEMYAKNSVA | QTSTRVS | QDYHRLPLS | 0.82 0.69 1.02 0.82 0.70 1.13 | 2 of 18 (3.02)
TISMSMNWLTFNKNSIA | EESTRED | QQYDRLPLS | ND 2.55 ND ND ND ND | 0 of 18
NFPQEQMYESHFKNNVA | QTSTREP | QQYDHLPLS | 0.03 0.30 0.04 -0.08 -0.04 0.14 | 1 of 18 (2.33)
KISQMFNVGTKNTNSLA | EMNTRGN | QDYHRLPLS | 1.70 1.92 1.97 1.04 1.33 2.32 | 1 of 18 (2.90)
KISYMGEHFSTNHSAIA | QASTREQ | QQYYRLPIS | 1.34 0.97 0.83 0.87 0.82 1.05 | 2 of 18 (2.93)
KLSQSVRMESFNKNSVA | ENSTREE | QDYHRLPLS | 1.87 ND 1.40 ND ND 2.10 | 2 of 18 (2.32)
TLSDLMYMESRNVNSVA | DLVKREK | QQYHRLPLS | 0.15 0.33 0.19 0.23 0.32 0.36 | 3 of 18 (2.97)
KISYMGDYFSTNHSSIA | QASTREQ | QQYHRLPLS | 0.45 0.22 0.27 0.23 0.32 0.23 | 0 of 18
IISQSVMGESRNKNSVA | QTSERNY | QQYDRLPLM | 0.66 0.47 0.51 0.63 0.47 0.95 | 2 of 18 (2.27)
SLMQFGGYESNNHNSIA | DLRTRES | QQYHRLPLS | 0.30 0.34 0.60 0.19 0.65 0.42 | 1 of 18 (4.02)
TISMSMNWLTFNKNNIA | EESTREE | QQYDRLPLS | ND ND ND ND ND ND | 0 of 18
KLYQSVGTLSHNKQSIA | DMDRRED | QQYHRLPLS | -0.02 -0.01 -0.45 -0.30 -0.37 -0.02 | 0 of 18
KISFNTLIESKMLNSVA | EMTTREY | QDYDRLPLS | 0.54 0.21 0.35 0.06 0.01 0.31 | 0 of 18
MLSDTVMYGSYSRNSVA | QESTRAE | QQYHHLPLS | 0.53 0.62 0.51 0.52 0.61 0.90 | 1 of 18 (1.82)
MFSQLFYTGSRTRNAVA | QASTREN | QQYHHLPLS | 1.08 1.00 0.87 1.26 0.43 1.22 | 1 of 18 (3.02)
KISMAVTFESRNKNSVA | ENSTRES | QSYHRLPLS | ND ND ND ND ND ND | 0 of 18
MFSQSVMYGSFNRNSVA | QTSTRES | QQYDRLPLS | 2.10 ND ND ND ND ND | 1 of 18 (3.09)
TISQMLLMQTSHKNSVA | GEETRLN | QQYHHLPLS | 0.83 0.75 0.59 0.14 0.65 0.77 | 2 of 18 (2.27)
TISMSMRYESSLKNAIA | NAQTRES | QQYHRLPIS | 1.84 0.61 0.78 0.99 0.57 0.71 | 0 of 18
MFSQLMEYGSRYRNSVA | QASTRED | QQYHWLPLS | 1.60 0.91 0.72 0.87 1.05 0.74 | 0 of 18
KISQMYRYEQQNTSSIA | EANTREQ | QSYHRLPLS | 1.17 1.35 1.75 2.40 2.32 1.36 | 1 of 18 (2.64)
ILSQSVLMGSHLKNSVA | QASTRFN | QQYHRLPLS | 1.57 0.35 0.12 0.13 0.65 0.57 | 1 of 18 (2.83)
MLSDLVKMGVRNTNSVA | DNSTRGP | QQYDRLPLS | 1.41 1.76 0.61 1.43 0.87 1.85 | 2 of 18 (2.67)
MLSDLVKMGSRNTNSVA | DNSTRGS | QQYDRLPLM | 2.79 1.72 1.53 1.44 1.96 1.89 | 0 of 18
HFSQVTMYGSWNKNSVA | QTSTREN | QQYDRLPLS | 2.90 2.23 2.26 ND 2.15 ND | 1 of 18 (2.20)
TISNSFNMENQFKNSVA | QASTRES | QCYDRLPLS | 1.29 0.95 0.39 1.24 0.76 0.73 | 0 of 18
IISQSMLYESATHNSIA | QTQTREE | QQYHHLPLS | 1.21 1.75 1.15 0.40 2.15 1.87 | 0 of 18
KISYMGEYFSTNHSSIA | QASTRVQ | QQYHRLPLS | 0.36 0.56 0.31 0.19 0.34 0.43 | 1 of 18 (2.22)
KLSISYLFESLEKNSIA | ENSTREN | QHYHRLPLS | ND 2.08 ND ND ND 1.93 | 0 of 18
TLGDVTRMESNKKSSIA | DMSNRAV | QQYHRLPIS | 0.35 0.54 0.55 0.32 0.43 0.87 | 1 of 18 (2.92)
ALGDVTRMESNKKDSIA | DMSTRES | QQYHRLPLS | 0.00 -0.16 0.24 -0.22 0.13 0.18 | 0 of 18
KLQQVTGYELYVRNSVA | QMSTRAE | QDYNRLPLS | 0.49 0.61 0.32 0.54 0.39 0.85 | 1 of 18 (2.50)
ALGTSTLEESRNKNSVA | EMSLREA | QSYNRLPLS | 1.09 0.46 0.79 0.72 0.51 0.72 | 1 of 18 (1.83)
SLMQVGGYESNAKNSIA | DLRTRES | QQYHRLPLS | 0.59 0.15 0.28 0.38 0.41 0.38 | 0 of 18
KIMQSLNYQQFNVSNVA | GQETRER | QSYHRLPLS | 1.61 1.34 2.08 1.83 1.65 1.31 | 1 of 18 (0.85)
KISMYLQKESKNKNSVA | EMVNRES | QQYDRLPLS | 0.63 0.48 0.19 0.98 0.54 0.76 | 0 of 18
MISQSFLIGMKAKNSVA | QTNTREE | QQYDRLPLI | 2.18 0.45 1.12 0.47 0.66 0.86 | 0 of 18

Picked from the list: the 6 lowest averages where every replicate gave a value.

CDR-L1 | CDR-L2 | CDR-L3 | log10 Kd, replicates | control signals
KLYQSVGTLSHNKQSIA | DMDRRED | QQYHRLPLS | -0.02 -0.01 -0.45 -0.30 -0.37 -0.02 | 0 of 18
ALGDVTRMESNKKDSIA | DMSTRES | QQYHRLPLS | 0.00 -0.16 0.24 -0.22 0.13 0.18 | 0 of 18
NFPQEQMYESHFKNNVA | QTSTREP | QQYDHLPLS | 0.03 0.30 0.04 -0.08 -0.04 0.14 | 1 of 18 (2.33)
KISFNTLIESKMLNSVA | EMTTREY | QDYDRLPLS | 0.54 0.21 0.35 0.06 0.01 0.31 | 0 of 18
TLSDLMYMESRNVNSVA | DLVKREK | QQYHRLPLS | 0.15 0.33 0.19 0.23 0.32 0.36 | 3 of 18 (2.97)
KISYMGDYFSTNHSSIA | QASTREQ | QQYHRLPLS | 0.45 0.22 0.27 0.23 0.32 0.23 | 0 of 18

Values of this round are not directly comparable with the first-round values of the same sequences. The authors' rule: three or more of the six replicates give a measured affinity, fewer mean a poor binder. Background: pairings of all light chain designs with three empty control strains gave a value in 4% of cases (median 2.64, 5th percentile 1.59). Values in that range, when seen in few replicates, are hard to tell from nonspecific mating. For each scFv, signals with the empty controls are counted beside the result, with their mean in brackets. The parent sequence was in this pool as ten entries: three were never detected, three once, and four in most replicates, with averages from 0.34 to 2.37.